The values that follow come from US6335176B1, “Incorporation of phosphorylation sites” (Pharmacopeia, Inc., priority 1998, dated 2002).

This experiment addresses β2-adrenergic receptor (Homo sapiens, UniProt P07550). Put plainly: Receptor binding of 33P-labeled alprenolol derivative to cells expressing the receptor. The conditions noted are these: 33P-labeled ligand, FIG. 8.

Regarding “N-α-acetyl-S-[alprenolol amido-(6-aminothioacetyl)hexonyl](SEQ ID NO. 7) cys-ser-arg-arg-ala-[^33PO3]phosphoser-val-tyr-amide [alprenolol derivative]”, the “specific binding to its receptor” value is given as “bound specifically”.
